Source: PubChem BioAssay
MmCpn inh: Inhibitors of TCP-1 ring complex (TRiC) of Methanococcus maripaludis (MmCpn): qHTS; purified Mm-Cpn ATPase, ADP Transcreener TR-FRET; Potency, µM (highest dose often 76.9 µM), without a hit: at the highest dose activity, negative = inhibition, usual class: inhibitors; 330,000 tested, 0.031% active; active = well fitted inhibition curve with a large enough effect; inconclusive = small, poorly fitted or top-dose-only effect; also: potency is read from the fitted curve at half-maximal effect; % is scaled to controls: 0 for no effect and ±100 for the full control effect; nearly all actives have a fitted effect of over 80% in size
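Compound-treated chaperonin, 25 nM final, turns over 10 uM ATP at 37°C for 30 min following a 10 min preincubation; ADP generated competes with ADP-d2 for Eu-cryptate antibody, lowering FRET.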
CCT modulator: High-Throughput Screening for Modulators of Cytosolic Chaperonin Activity | purified chaperonin ATPase assay, HTRF ADP detection, 30 min | activity change, % (concentration not given with the values), hits read low | 360,000 tested, 0.3% active | AID 651819, 2012; in the data active = activity change below about -30%; also: % is scaled to controls: 0 for no effect and ±100 for the full control effect
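TRiC (40 or 20 nM final, by batch activity) in 30 mM Tris pH 7.4, 100 mM KCl, 5 mM MgCl2, 1 mM DTT was treated with compound at 76 uM single dose, then 10 uM ATP, 30 min at 37 °C. ADP was read by HTRF Transcreener.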
KCNH2 3.1 inh: qHTS for Inhibitors of KCHN2 3.1: Mutant qHTS | Potassium voltage-gated channel subfamily H member 2, brain isoform KCNH2 3.1 (human) | U2OS KCNH2 3.1, thallium flux FluxOr; active compounds read low | activity change, % (tested at about 1.8 µM) | 340,000 tested, 0.95% active;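 active = maximum activity change below -70%; inconclusive = maximum activity change from -70% to -50%; inactive = maximum activity change above -50%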;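 also: thallium influx rate constant from kinetic fluorescence after stimulation buffer; % is scaled to controls: 0 for no effect and ±100 for the full control effect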
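Normalized rate constant (relative to positive and negative DMSO controls) derived from a 2 min kinetic fluorescence read after stimulation; U2OS cells expressing the 3.1 isoform via virus at 1.77 x 10^8 /mL.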
Rango complex inh: qHTS Assay for Inhibitors of Rango (Ran-regulated importin-beta cargo) - Importin beta complex formation; Potency, µM (doses to about 92.2 µM), without a hit: at the highest dose inhibition of complex formation; Rango CFP/YFP FRET sensor + importin beta, 45 min; Importin subunit beta-1 (Homo sapiens), Q14974; 340,000 tested, 0.031% active; AID 540263, 2011;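 also: potency is read from the fitted curve at half-maximal effect; 0% = DMSO wells and 100% = buffer wells lacking importin beta; nearly all actives have a fitted effect of over 15% in size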
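FRET biosensor Rango (snurportin 1 IBB between N-terminal EYFP and C-terminal Cerulean), 50 nM in PBS/1 mM DTT/0.02% Tween-20/0.1% BSA, preincubated 5 min RT with compound; 0.125 microM importin beta added, 45 min RT, CFP/YFP FRET ratio read.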
Rango release inh: qHTS Assay for Inhibitors of RanGTP induced Rango (Ran-regulated importin-beta cargo) - Importin beta complex dissociation; Biochemical FRET Rango-importin beta, RanGTP-induced dissociation; Potency, µM (doses to about 46.1 µM), for inactives: top-dose activity change, negative = inhibition; 340,000 tested, 0.071% active; Snurportin-1 (Homo sapiens) + GTP-binding nuclear protein Ran (Homo sapiens) + Importin …; also: potency is read from the fitted curve at half-maximal effect; % of control where 0% means no effect; nearly all actives have a fitted effect of over 45% in size
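Rango FRET biosensor (snurportin-1 IBB flanked by N-terminal EYFP and C-terminal CFP10) at 0.1 uM, with 0.25 uM importin beta in PBS, 1mM DTT, 0.02% Tween-20, 0.1% BSA. 0.6 uM Ran, 2mM GTP and 0.2 uM RCC1 were then added for 45 min at room temperature. Inhibition read as loss of FRET rise.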
hERG WT inh: qHTS for Inhibitors of KCHN2 3.1: Wildtype qHTS. Voltage-gated inwardly rectifying potassium channel KCNH2 (Homo sapiens), Q12809. U2OS, BacMam KCNH2, thallium flux FluxOr; active compounds read low. activity change, % at 1.84 µM. 340,000 tested, 0.37% active. AID 720551, 2013;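 active = maximum activity change below -70%; inconclusive = maximum activity change between -70% and -50%; inactive = maximum activity change above -50%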; also: % is scaled to controls: 0 for no effect and ±100 for the full control effect
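U2OS cells were transduced with wild-type KCNH2 virus (2.03 x 10^8 / mL) for 4 h at room temperature, then cultured overnight at 37 C. Thallium flux was read with FluxOr dye. Rate constants were normalized to DMSO controls.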
The depositor's hits bear a star; ? = inconclusive; . = no result. Rows were chosen to be rich in hits. Some 1.4% of all compounds tested hit in one or more screens of this group. Unless noted, calls follow the shape of the full dose curve.

By UniProt entry, the sequences of proteins in these tests, tags left out.
Importin subunit beta-1 (Homo sapiens), Q14974, UniProt Q14974, whole entry, looked up: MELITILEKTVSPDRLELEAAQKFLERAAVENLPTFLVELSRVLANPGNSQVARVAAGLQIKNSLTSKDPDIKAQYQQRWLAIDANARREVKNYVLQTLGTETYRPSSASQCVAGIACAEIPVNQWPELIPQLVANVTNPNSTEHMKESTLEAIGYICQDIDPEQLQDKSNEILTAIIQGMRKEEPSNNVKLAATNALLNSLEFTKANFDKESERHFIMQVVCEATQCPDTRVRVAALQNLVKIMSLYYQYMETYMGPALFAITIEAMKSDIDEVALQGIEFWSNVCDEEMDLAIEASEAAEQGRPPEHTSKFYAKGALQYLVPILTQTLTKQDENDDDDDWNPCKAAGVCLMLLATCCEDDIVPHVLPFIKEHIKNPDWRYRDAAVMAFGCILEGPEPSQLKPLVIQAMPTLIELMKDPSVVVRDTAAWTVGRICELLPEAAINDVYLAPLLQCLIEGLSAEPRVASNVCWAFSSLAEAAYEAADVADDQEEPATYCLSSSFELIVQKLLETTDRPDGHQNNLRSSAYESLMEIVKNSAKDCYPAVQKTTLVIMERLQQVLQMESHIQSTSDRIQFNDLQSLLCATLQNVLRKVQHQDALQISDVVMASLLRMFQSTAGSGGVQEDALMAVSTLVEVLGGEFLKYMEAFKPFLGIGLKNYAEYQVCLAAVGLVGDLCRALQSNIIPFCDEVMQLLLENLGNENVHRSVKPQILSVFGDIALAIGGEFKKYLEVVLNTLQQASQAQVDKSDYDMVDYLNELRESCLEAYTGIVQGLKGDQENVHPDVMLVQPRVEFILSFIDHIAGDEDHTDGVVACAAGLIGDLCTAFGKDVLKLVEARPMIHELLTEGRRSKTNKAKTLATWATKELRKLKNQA

Screens by letter – A = MmCpn inh; B = CCT modulator; C = KCNH2 3.1 inh; D = Rango complex inh; E = Rango release inh; F = hERG WT inh
#1 O=S(=O)(c1ccccc1)N1CCNc2ccccc21
  A: .	B: -1.0	C: -121.5*	D: -0.1%	E: 6.2%	F: -0.3

#2 Cc1ccc(C)c(CN2CCC(CNC(=O)Nc3ccc(Cl)cc3)CC2)c1
  A: 0.6%	B: 0.4	C: -88.0*	D: -2.3%	E: 11.8%	F: -9.4

#3 Cc1ccc(C)c(CN2CCC(CNC(=O)Nc3ccc(Br)cc3F)CC2)c1
  A: 0.9%	B: -4.5	C: -71.1*	D: -4.7%	E: -12.4%	F: -18.7

#4 Cc1ccccc1CC1CCN(CCCNC(=O)Nc2ccccc2)CC1
  A: -0.5%	B: -0.4	C: -80.3*	D: ?	E: -9.0%	F: 30.3

#5 COc1ccccc1CCN1C(=S)NC(C)(C)CC1(C)O (centres undefined)
  A: 1.8%	B: -2.1	C: 2.5	D: 2.2%	E: 11.8%	F: -0.5

#6 COc1ccc(CN2C(=S)NC(C)(C)CC2(C)O)cc1 (centres undefined)
  A: -0.3%	B: -1.8	C: 15.7	D: 0.6%	E: 0.0%	F: -141.7*

#7 CCOC(=O)N1CCN(C(=O)COC(=O)CNC(=O)c2ccc(OCC)c(OCC)c2)CC1
  A: -0.8%	B: -1.5	C: -25.2	D: 1.2%	E: -5.3%	F: 6.9

#8 O=C(Cn1cnc([N+](=O)[O-])c1)NCCc1ccccc1
  A: 1.6%	B: 1.1	C: 3.0	D: 0.7%	E: 7.1%	F: -10.0

#9 O=C(Cn1cnc([N+](=O)[O-])c1)Nc1ccccc1C(F)(F)F
  A: 1.1%	B: -0.5	C: 20.3	D: 0.3%	E: 7.6%	F: -74.5*

#10 COc1ccc(N2CCN(CCCn3ccc(NC(=O)OCc4ccccc4)nc3=O)CC2)cc1
  A: .	B: -1.4	C: ?	D: .	E: .	F: 5.6

#11 O=C(Nc1ccn(CCCN2CCN(Cc3cccc4ccccc34)CC2)c(=O)n1)OCc1ccccc1
  A: .	B: 1.2	C: ?	D: .	E: .	F: -1.4

#12 COc1ccc(CN(C)CCCn2ccc(NC(=O)OCc3ccccc3)nc2=O)cc1OC
  A: .	B: -0.6	C: -7.9	D: .	E: .	F: 20.1

#13 CN(CCCn1ccc(NC(=O)OCc2ccccc2)nc1=O)CCc1ccccn1
  A: .	B: -1.4	C: -85.3*	D: .	E: .	F: -4.5

#14 O=C(Nc1ccn(CCCN2CCN(c3ccccc3)CC2)c(=O)n1)OCc1ccccc1
  A: .	B: -6.4	C: -72.1*	D: .	E: .	F: 42.4

#15 Cc1cc(C)c(CN2CCN(CCCn3ccc(NC(=O)OCc4ccccc4)nc3=O)CC2)c(C)c1
  A: .	B: -1.1	C: -82.1*	D: ?	E: -1.8%	F: -43.7

#16 CN(C)S(=O)(=O)c1cccc(NC(=O)COC(=O)c2cccn2C)c1
  A: -3.8%	B: 0.3	C: 11.2	D: 0.3%	E: -16.9%	F: 1.4

#17 CC(=O)c1ccc(NC(=O)CN2C(=O)/C(=C/C=C/c3ccccc3)SC2=S)cc1
  A: 1.7%	B: -0.7	C: 13.8	D: 29.1µM*	E: 20.2%	F: -2.1

#18 COc1ccc(S(=O)(=O)N2CCN=C2SCc2cccc(F)c2)cc1
  A: 0.4%	B: 0.4	C: -39.6	D: -2.6%	E: 0.3%	F: 2.6

#19 Cc1ccc(CN2CCN(CCCc3ccccc3)CC2CCO)cc1 (centres undefined)
  A: -2.5%	B: -0.6	C: -75.4*	D: -0.1%	E: 9.6%	F: 9.9

#20 OCCC1CN(CCCc2ccccc2)CCN1Cc1ccc(F)cc1 (centres undefined)
  A: -0.8%	B: -3.6	C: -0.8	D: 2.4%	E: -1.2%	F: 17.2

Of the compounds above, these have two or more sulfur atoms.
Screens by letter – A = MmCpn inh; B = CCT modulator; C = KCNH2 3.1 inh; D = Rango complex inh; E = Rango release inh; F = hERG WT inh
#17 CC(=O)c1ccc(NC(=O)CN2C(=O)/C(=C/C=C/c3ccccc3)SC2=S)cc1
  A: 1.7%	B: -0.7	C: 13.8	D: 29.1µM*	E: 20.2%	F: -2.1

#18 COc1ccc(S(=O)(=O)N2CCN=C2SCc2cccc(F)c2)cc1
  A: 0.4%	B: 0.4	C: -39.6	D: -2.6%	E: 0.3%	F: 2.6

(cont.)
Screens by letter – A = MmCpn inh; B = CCT modulator; C = KCNH2 3.1 inh; D = Rango complex inh; E = Rango release inh; F = hERG WT inh
#21 CCOc1ccc(CN2CCN(CCCc3ccccc3)CC2CCO)cc1 (centres undefined)
  A: -2.7%	B: 1.5	C: -8.2	D: 2.7%	E: -15.2%	F: -81.5*

#22 OCCC#Cc1ccc(CN2CCN(CCc3ccccc3)C(CCO)C2)cc1 (centres undefined)
  A: 3.4%	B: 1.9	C: 3.9	D: 0.8%	E: 11.3%	F: 9.1

#23 C#Cc1ccc(CN2CCN(CCCc3ccccc3)C(CCO)C2)cc1 (centres undefined)
  A: -1.6%	B: -5.1	C: -71.9*	D: 1.3%	E: 11.3%	F: -0.4

#24 CCOc1ccc(CN2CCN(C3CCSCC3)CC2CCO)cc1 (centres undefined)
  A: 1.9%	B: 3.9	C: -84.1*	D: -0.5%	E: 2.6%	F: -12.4

#25 COc1ccc2[nH]c3c(NCCN(C(C)C)C(C)C)ncnc3c2c1
  A: -4.1%	B: -52.3*	C: -34.9	D: -3.7%	E: -7.3%	F: 3.5

#26 CC[n+]1c(/C=C2/C=C(C)CC(C)(C)C2)sc2ccc(OC)cc21
  A: 1.5%	B: -0.5	C: 2.0	D: ?	E: ?	F: -71.2*

#27 CCOC(=O)C1(CCOc2ccccc2)CCN(Cc2cccc(-n3cccn3)c2)CC1
  A: 2.9%	B: -2.1	C: -98.4*	D: -0.8%	E: -2.9%	F: .

#28 CCOC(=O)C1(CCOc2ccccc2)CCN(C(=O)c2ccc(-n3cccn3)cc2)CC1
  A: 0.4%	B: 0.3	C: -86.8*	D: 1.3%	E: -15.8%	F: ?

#29 CCOC(=O)C1(CCOc2ccccc2)CCN(CCCn2cccn2)CC1
  A: -0.7%	B: 1.2	C: -87.9*	D: -3.1%	E: -3.6%	F: -37.7

#30 CCOC(=O)C1(CCOc2ccccc2)CCN(CC=C(C)C)CC1
  A: -0.2%	B: -1.6	C: -3.1	D: -2.4%	E: -2.5%	F: 19.5

#31 Cc1ccoc1C(=O)N1CCN(C(=O)c2occc2C)CC1
  A: 3.4%	B: 2.4	C: 0.5	D: -0.1%	E: 1.3%	F: 2.1

#32 CC(CNC(=O)CCCn1ncn2c(cc3occc32)c1=O)c1ccccc1 (centres undefined)
  A: 3.5%	B: 0.4	C: 16.7	D: -4.4%	E: 20.5%	F: -6.2

#33 COc1ccc(CNC(=O)CCCn2ncn3c(cc4occc43)c2=O)cc1
  A: -0.4%	B: 0.3	C: -114.2*	D: -2.3%	E: -5.8%	F: 2.4

#34 CCCc1nc2ccc(C(=O)OC)cn2c1Cc1cccc(F)c1
  A: .	B: -5.3	C: .	D: .	E: .	F: .

#35 Cc1onc(-c2c(Cl)cccc2Cl)c1C(=O)N1CCN(Cc2ccccc2)CC1
  A: 2.7%	B: 1.6	C: -3.4	D: 3.5%	E: -11.0%	F: -18.0

#36 Cc1onc(-c2c(F)cccc2Cl)c1C(=O)NNC(=O)C1CCN(Cc2ccccc2)CC1
  A: -6.1%	B: -0.6	C: -102.5*	D: 4.7%	E: 1.2%	F: 22.2

#37 Cc1ccc2ccccc2c1C(O)c1ncc(-c2ccc(Cl)cc2)[nH]1 (centres undefined)
  A: .	B: -0.2	C: .	D: .	E: .	F: .

#38 O=C(CCn1c(=O)c2sccc2n(CC(=O)NCc2ccco2)c1=O)NCc1ccccc1
  A: -3.1%	B: 1.8	C: 3.0	D: 6.8%	E: 0.9%	F: -254.0*

#39 Cc1cc(C)c2nc(SCC(=O)NCC3CCCO3)c(C#N)cc2c1 (centres undefined)
  A: ?	B: -2.9	C: -2.3	D: ?	E: -5.6%	F: -2.0

#40 CC1Sc2ccc(S(=O)(=O)N3CCC(C(=O)Nc4ccc(Cl)cc4)CC3)cc2NC1=O (centres undefined)
  A: 0.5%	B: -2.0	C: -4.3	D: -0.1%	E: 6.1%	F: -4.8

#41 CCn1cc(C(=O)N[C@@H](CCSC)C(=O)NCCCn2ccnc2)c(=O)c2cc3c(cc21)OCO3
  A: 0.0%	B: -4.6	C: 12.6	D: -1.1%	E: 2.7%	F: 2.4
